pIC50: −log10 of the molar value.
Target: DCN1-like protein 1 (Homo sapiens, UniProt Q96GG9)

CCCC(=O)N1CCC(N(Cc2ccccc2)C(=O)Nc2cccc(C(F)(F)F)c2)CC1 and C=CC(=O)N1CCC(N(Cc2ccccc2)C(=O)Nc2cccc(C(F)(F)F)c2)CC1 are the same in pIC50: 4.44 for the first, 4.44 for the second.

Compared with Cc1ccc(CN2CCC(NC(=O)Nc3cccc(C(F)(F)F)c3)CC2)cc1, O=C(Nc1cccc(C(F)(F)F)c1)NC1CCN(Cc2cccc(Cl)c2)CC1 is 0.24 log units lower in pIC50: 4.72 for the first, 4.48 for the second. The first is the more potent here.

Going from O=C(Nc1cccc(C(F)(F)F)c1)N(Cc1ccccc1)C1CCN(Cc2ccccc2)CC1 to CCCCCCN1CCC(N(Cc2ccccc2)C(=O)Nc2cccc(C(F)(F)F)c2)CC1, the pIC50 rises from 5.49 to 5.96 (0.47 log units). The second is the more potent here.

Going from CCCCS(=O)(=O)N1CCC(N(Cc2ccccc2)C(=O)Nc2cccc(C(F)(F)F)c2)CC1 to O=C(Nc1cccc(S(F)(F)(F)(F)F)c1)NC1CCN(Cc2ccccc2)CC1, the pIC50 falls from 6.85 to 4.64 (2.21 log units).

Source: ChEMBL document CHEMBL4219151, “Piperidinyl Ureas Chemically Control Defective in Cullin Neddylation 1 (DCN1)-Mediated Cullin Neddylation” (J Med Chem, 2018)
